Assay: Solubility of sodium oxybate (GHB) in aqueous solution versus pH
Details: at about pH 4

O=C(O)CCCO [Sodium Oxybate, sodium oxybate]
maximum amount of sodium-GHB that can be dissolved: about 450 mg/ml

Source: patent US20130143965A1, “MICROBI[…] AND STABLE SOLUTIONS OF GAMMA-HYDRO[…] FOR THE TREATMENT OF NARCOLEPSY” (Jazz Pharmaceuticals, Inc., priority 1998, published 2013)
